From patent US6861431B2, “Compounds capable of modulating the activity of multidrug transporters and therapeutic use of the same” (The Board of Trustees of the University of Illinois, priority 2001, dated 2005)

Tested on: ConA cells
Assay: Drug sensitivity (growth inhibition) assay, ConA cells
Assay type: cell-based, mouse
Conditions: Compound 102 (10 μM), fold resistance

## COc1cc2c(c(OC)c1OC)-c1ccc(OC)c(=O)cc1[C@@H](NC(C)=O)CC2 [Colchicine, colchicine]
  Change in sensitivity (x-fold): 1 x-fold
